In PubChem BioAssay AID256 (DTP/NCI, 2004):
Toxic doses and inconclusive results are not listed.

Test system: CD2F1 mice, L1210 leukemia ip, survival T/C
Assay: NCI In Vivo Anticancer Drug Screen. Data for tumor model L1210 Leukemia (intraperitoneal) in CD2F1 (CDF1) mice
Details: higher = longer survival
Procedure, shortened: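 Implant tumor; dose compound or vehicle; measure endpoint in both groups; report treated divided by control.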

CN(Cc1cnc2nc(N)nc(N)c2n1)c1ccc(C(=O)N[C@@H](CCC(=O)O)C(=O)O)cc1
T/C (endpoint: mean survival time, dose: 0.25 mg/kg/injection, schedule: Q03HX024 (ip), vehicle: saline): 162 % of control | T/C (endpoint: mean survival time, dose: 0.67 mg/kg/injection, schedule: Q01DX009 (ip), vehicle: sodium bicarbonate): 162 % of control | T/C (endpoint: mean survival time, dose: 1.5 mg/kg/injection, schedule: Q01DX009 (ip), vehicle: other): 103 % of control | T/C (endpoint: mean survival time, dose: 2.0 mg/kg/injection, schedule: Q01DX009 (ip), vehicle: saline with Tween-80): 172 % of control | T/C (endpoint: mean survival time, dose: 4.0 mg/kg/injection, schedule: Q03DX003 (ip), vehicle: sodium bicarbonate): 172 % of control | T/C (endpoint: mean survival time, dose: 5.0 mg/kg/injection, schedule: Q04DX003 (ip), vehicle: sodium bicarbonate): 172 % of control | T/C (endpoint: mean survival time, dose: 8.0 mg/kg/injection, schedule: Q04DX003 (ip), vehicle: saline): 162 % of control | T/C (endpoint: median survival time, dose: 0.75 mg/kg/injection, schedule: Q01DX009 (ip), vehicle: sodium bicarbonate): 151 % of control | T/C (endpoint: median survival time, dose: 3.0 mg/kg/injection, schedule: Q01DX005 (ip), vehicle: sodium bicarbonate): 172 % of control | T/C (endpoint: median survival time, dose: 3.13 mg/kg/injection, schedule: Q01DX001 (ip), vehicle: sodium bicarbonate): 103 % of control | T/C (endpoint: median survival time, dose: 60.0 mg/kg/injection, schedule: Q01DX001 (ip), vehicle: sodium bicarbonate): 151 % of control | T/C (endpoint: median survival time, dose: 72.0 mg/kg/injection, schedule: Q01DX001 (ip), vehicle: sodium bicarbonate): 162 % of control | T/C (endpoint: median survival time, dose: 100.0 mg/kg/injection, schedule: Q01DX001 (ip), vehicle: sodium bicarbonate): 151 % of control
